# Like-named read-outs stand apart in the source and are kept apart here.
# Conditions: for time at which insulin release stopped / cumulative insulin release, share of total insulin loading released: PVA/dextran 80/20 patch, PBS pH 7.4, 37° C.; for cumulative insulin release, share of total insulin loading released: release stopped at 40 hours
substance,measurement,setting,value
insulin,rate and extent of insulin release against dextran content,"4 freeze-thaw cycles, PVA/dextran weight ratios 100/0, 90/10 and 80/20",increased as the dextran content was increased
same,time at which insulin release stopped,2 freeze-thaw cycles,40 h
same,"cumulative insulin release, share of total insulin loading released",2 freeze-thaw cycles,70%
same,time at which insulin release stopped,4 freeze-thaw cycles,40 h
same,"cumulative insulin release, share of total insulin loading released",4 freeze-thaw cycles,60%
same,insulin release profile (cumulative and hourly),"three-layer patch (drug-loaded+drug-free+drug-loaded) by programmed casting, PVA/dextran 85/15, 1% insulin by weight in drug-loaded layer",two insulin release peaks with five hours interval

# From patent US9320878B2, “Phase-transition polymeric microneedles” (priority 2008, dated 2016)
